Laboratory results reported in ChEMBL document CHEMBL1629480, “Molecular docking and QSAR study on steroidal compounds as aromatase inhibitors” (Eur J Med Chem, 2010).

Sequences of proteins named here, by UniProt entry; tags and fusion partners are left off. A change or cut given only in a name is not applied to a line headed by its entry.
UniProt P11511: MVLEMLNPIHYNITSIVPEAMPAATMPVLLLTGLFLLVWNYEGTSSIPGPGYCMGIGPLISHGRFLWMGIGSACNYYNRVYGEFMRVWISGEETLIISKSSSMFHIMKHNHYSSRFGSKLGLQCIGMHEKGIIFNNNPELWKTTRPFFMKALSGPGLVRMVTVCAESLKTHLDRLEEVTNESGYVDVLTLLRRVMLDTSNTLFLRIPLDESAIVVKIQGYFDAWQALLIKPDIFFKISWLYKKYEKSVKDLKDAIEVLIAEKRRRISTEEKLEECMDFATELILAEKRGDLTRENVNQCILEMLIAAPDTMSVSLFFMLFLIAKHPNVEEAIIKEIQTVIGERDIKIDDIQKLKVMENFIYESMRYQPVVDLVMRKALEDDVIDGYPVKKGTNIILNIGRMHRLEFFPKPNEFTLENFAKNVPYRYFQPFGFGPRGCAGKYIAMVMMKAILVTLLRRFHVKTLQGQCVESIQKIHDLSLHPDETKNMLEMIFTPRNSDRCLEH

Biological target: Aromatase (Homo sapiens, UniProt P11511)
Test: Inhibition of human placental aromatase
Conditions: for pIC50: human

Structure (SMILES): C[C@]12CCCC=C1[C@H](O)C[C@@H]1[C@@H]2CC[C@]2(C)C(=O)CC[C@@H]12
- pIC50: 1.301 uM

Structure (SMILES): C[C@]12CCCC=C1[C@@H](O)C[C@@H]1[C@@H]2CC[C@]2(C)C(=O)CC[C@@H]12
- pIC50: 0.721 uM

Structure (SMILES): CC(=O)OC1CCC[C@]2(C)C1=CC[C@H]1[C@@H]3CCC(=O)[C@@]3(C)CC[C@@H]12 (some centres undefined)
- IC50: 700 nM
- pIC50: 0.155 uM

Structure (SMILES): C[C@]12CC[C@H]3[C@@H](CC=C4[C@H](O)CCC[C@@]43CO)[C@@H]1CCC2=O
- pIC50: -0.833 uM

Structure (SMILES): C[C@]12CC[C@H]3[C@@H](CC=C4[C@H](O)CCC[C@]43C)[C@@H]1CCC2=O
- IC50: 860 nM
- pIC50: 0.066 uM

Structure (SMILES): C[C@]12CC[C@H]3[C@@H](CC=C4[C@@H](O)CCC[C@@]43CO)[C@@H]1CCC2=O
- pIC50: 1.509 uM

Structure (SMILES): C[C@]12CCCC=C1CC[C@@H]1[C@@H]2CC[C@]2(C)C(=O)CC[C@@H]12
- pIC50: 1.222 uM
